US11566007B2, “Ras inhibitors” (Revolution Medicines, Inc., priority 2019, dated 2023)

By UniProt entry, the sequences of proteins in these tests, tags left out. Where a name states a change or a piece, a line headed by the entry shows the natural chain unless it says otherwise. Residues count along the entry.
UniProt P01116, 1-169 isoform 2 G12S limits assumed: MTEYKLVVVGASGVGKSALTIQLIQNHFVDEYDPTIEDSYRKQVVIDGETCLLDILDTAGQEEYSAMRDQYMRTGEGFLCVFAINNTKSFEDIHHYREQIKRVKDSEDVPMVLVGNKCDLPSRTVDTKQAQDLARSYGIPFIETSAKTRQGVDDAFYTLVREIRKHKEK
UniProt P01116, 1-169 isoform 2 G12D limits assumed: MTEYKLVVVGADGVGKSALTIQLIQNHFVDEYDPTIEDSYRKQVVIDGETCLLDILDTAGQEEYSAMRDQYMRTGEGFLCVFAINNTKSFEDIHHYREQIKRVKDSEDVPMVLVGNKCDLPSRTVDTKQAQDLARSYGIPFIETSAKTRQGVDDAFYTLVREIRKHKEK
UniProt P01116, 1-169 isoform 2 Q61H limits assumed: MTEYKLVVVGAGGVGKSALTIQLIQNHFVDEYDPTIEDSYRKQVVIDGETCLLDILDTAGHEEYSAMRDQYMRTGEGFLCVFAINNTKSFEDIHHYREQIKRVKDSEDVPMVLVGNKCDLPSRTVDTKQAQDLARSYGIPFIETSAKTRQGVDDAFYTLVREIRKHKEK
UniProt P62937, whole entry, stated change not applied: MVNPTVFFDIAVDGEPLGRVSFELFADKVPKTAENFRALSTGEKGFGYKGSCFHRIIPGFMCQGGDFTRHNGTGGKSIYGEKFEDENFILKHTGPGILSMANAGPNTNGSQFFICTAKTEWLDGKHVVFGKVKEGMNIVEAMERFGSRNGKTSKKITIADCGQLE

Legend:
[1] = target: KRAS G12S (Homo sapiens (Human), UniProt P01116+P62937, G12S); assay: Ras-Raf (BRAF RBD) disruption / FRET / MOA assay, KRAS G12S; assay type: biochemical; conditions: read-out: KRAS G12S FRET data IC50, class symbols
[2] = tested on: NCI-H358 cells (K-Ras G12C); assay: Potency assay: pERK in NCI-H358 cells; conditions: read-out: pERK EC50; H358 KRAS G12C
[3] = target: KRAS G12D (Homo sapiens (Human), UniProt P01116+P62937, G12D); assay: Ras-Raf (BRAF RBD) disruption / FRET / MOA assay, KRAS G12D; assay type: biochemical; conditions: read-out: KRAS G12D FRET data IC50, class symbols
[4] = tested on: NCI-H358 (K-Ras G12C); assay: CellTiter-Glo cell viability assay, NCI-H358; conditions: read-out: Additional H358 Cell Viability assay data (K-Ras G12C, IC50); NCI-H358, 5-day treatment; class symbols
[5] = target: KRAS Q61H (Homo sapiens (Human), UniProt P01116+P62937, Q61H); assay: Ras-Raf (BRAF RBD) disruption / FRET / MOA assay, KRAS Q61H; assay type: biochemical; conditions: read-out: KRAS Q61H FRET data IC50, class symbols
Experimental: The purpose of this biochemical assay is to measure the ability of test compounds to facilitate ternary complex formation between a nucleotide-loaded Ras isoform and cyclophilin A; the resulting ternary complex disrupts binding to a BRAF^RBD construct, inhibiting Ras signaling through a RAF effector.
(§1) […]. Compound is present in plate wells as a 10-point 3-fold dilution series starting at a final concentration of 30 μM. After incubation at 25° C. for 3 hours, a mixture of Anti-His Eu-W1024 and anti-GST allophycocyanin is then added to assay sample wells at final concentrations of 10 nM and 50 nM, respectively, and the reaction incubated for an additional 1.5 hours. TR-FRET signal is read on a microplate reader (Ex 320 nm, Em 665/615 nm). Compounds that facilitate disruption of a Ras:RAF complex are identified as those eliciting a decrease in the TR-FRET ratio relative to DMSO control wells.
Note—The following protocol describes a procedure for monitoring disruption of K-Ras G12C (GMP-PNP) binding to BRAF^RBD by a compound of the invention. This protocol may also be executed substituting other Ras proteins or nucleotides.
The purpose of this biochemical assay was to measure the ability of test compounds to facilitate ternary complex formation between a nucleotide-loaded K-Ras isoform and Cyclophilin A; the resulting ternary complex disrupts binding to a BRAF^RBD construct, inhibiting K-Ras signaling through a RAF effector. Data is reported as IC50 values.
as §1, with “Compound was” for “Compound is”, “allophycocyanin was” for “allophycocyanin is”, “signal was” for “signal is”, “a K-Ras:RAF” for “a Ras:RAF”, “complex were” for “complex are”

Structure (SMILES) | IC50 [1] | EC50 [2] | IC50 [3] | IC50 [4] | IC50 [5]
C=CC(=O)N1CCC(C(=O)N(C)[C@H](C(=O)N[C@H]2Cc3cc(O)cc(c3)-c3ccc4c(c3)c(c(-c3ccccc3CN(C)C)n4CC)CC(C)(C)COC(=O)[C@@H]3CCCN(N3)C2=O)C(C)C)CC1 (single isomer, unassigned) | 1 to 10 µM |  |  |  | 
C=CC(=O)N1CCC2(CCN(C(C(=O)NC3Cc4cc(O)cc(c4)-c4ccc5c(c4)c(c(-c4ccccc4CCOC)n5CC)CC(C)(C)COC(=O)C4CCCN(N4)C3=O)C(C)C)C2=O)C1 (stereo not shown) |  | < 5 µM |  |  | 
CCn1c(-c2ccccc2CN(C)C)c2c3cc(ccc31)-c1cc(O)cc(c1)C[C@H](NC(=O)[C@H](C(C)C)N(C)C(=O)[C@H]1CCN(C(=O)/C=C/CN(C)C)C1)C(=O)N1CCC[C@H](N1)C(=O)OCC(C)(C)C2 (single isomer, unassigned) | 0.1 to 1 µM |  | 1 to 10 µM |  | 
C=CC(=O)N1CC(N(C)[C@H](C(=O)N[C@H]2Cc3cc(O)cc(c3)-c3ccc4c(c3)c(c(-c3cccnc3COC)n4CC)CC(C)(C)COC(=O)[C@@H]3CCCN(N3)C2=O)C(C)C)C1 | > 10 µM | < 5 µM | > 10 µM | > 1 µM | 
C=CC(=O)N1CC[C@H](C(=O)N(C)[C@H](C(=O)N[C@H]2Cc3cccc(c3)-c3ccc4c(c3)c(c(-c3cccnc3[C@H](C)OC)n4CC)CC(C)(C)COC(=O)[C@@H]3CCCN(N3)C2=O)C(C)C)C1 | > 10 µM | < 5 µM | > 10 µM |  | 
CCn1c(-c2cccnc2[C@H](C)OC)c2c3cc(ccc31)-c1csc(n1)C[C@H](NC(=O)[C@H](C(C)C)N(C)C(=O)N(C)C1CN(C(=O)/C=C/C(C)(C)O)C1)C(=O)N1CCC[C@H](N1)C(=O)OCC(C)(C)C2 | 0.1 to 1 µM | < 5 µM | 1 to 10 µM |  | 0.01 to 0.1 µM
C=CC(=O)N1CCO[C@H]2CN(C(=O)N(C)[C@H](C(=O)N[C@H]3CN4CCC=C(C4)c4ccc5c(c4)c(c(-c4cccnc4[C@H](C)OC)n5CC)CC(C)(C)COC(=O)[C@@H]4CCCN(N4)C3=O)C(C)C)C[C@H]21 | 1 to 10 µM | < 5 µM | 1 to 10 µM | < 0.01 µM | 0.1 to 1 µM
C=CC(=O)N1CC[C@@]2(CCCN([C@H](C(=O)N[C@H]3Cc4cc(O)cc(c4)-c4ccc5c(c4)c(c(-c4ccccc4CCOC)n5CC)CC(C)(C)COC(=O)[C@@H]4CCCN(N4)C3=O)C(C)C)C2=O)C1 (single isomer, unassigned) | 1 to 10 µM |  |  |  | 
C=CC(=O)N1CC[C@H](C(=O)N(C)[C@H](C(=O)N[C@H]2Cc3cc(O)cc(c3)-c3ccc4c(c3)c(c(-c3ccccc3)n4CC)CC(C)(C)COC(=O)[C@@H]3CCCN(N3)C2=O)C(C)C)C1 [Example A23] |  |  |  |  | 1 to 10 µM
CCn1c(-c2cccnc2COC)c2c3cc(ccc31)-c1cc(O)cc(c1)C[C@H](NC(=O)[C@H](C(C)C)N(C)C(=O)[C@H]1CCN(C(=O)/C=C/CN3CCN(C)CC3)C1)C(=O)N1CCC[C@H](N1)C(=O)OCC(C)(C)C2 (single isomer, unassigned) | 0.1 to 1 µM |  | 1 to 10 µM |  | 
C=CC(=O)N1CC[C@H](C(=O)N(C)[C@H](C(=O)N[C@H]2Cc3cc(OC(=O)CCN4CCN(C)CC4)cc(c3)-c3ccc4c(c3)c(c(-c3ccccc3CCOC)n4CC)CC(C)(C)COC(=O)[C@@H]3CCCN(N3)C2=O)C(C)C)C1 (single isomer, unassigned) | 1 to 10 µM |  | 1 to 10 µM |  | 
CCn1c(-c2cccnc2[C@H](C)OC)c2c3cc(ccc31)-c1cccc(c1)C[C@H](NC(=O)[C@H](C(C)C)N1CC[C@]3(CCN(C(=O)C#CC(C)(C)N4CCC4)C3)C1=O)C(=O)N1CCC[C@H](N1)C(=O)OCC(C)(C)C2 |  | < 5 µM |  |  | 0.1 to 1 µM
C=CC(=O)N1CC[C@H](C(=O)N(C)[C@H](C(=O)N[C@H]2Cc3cc(O)cc(c3)-c3ccc4c(c3)c(c(-c3ccc5cc(CN(C)C)n(C)c5c3)n4CC)CC(C)(C)COC(=O)[C@@H]3CCCN(N3)C2=O)C(C)C)C1 (single isomer, unassigned) | 1 to 10 µM |  |  |  | 
CCn1c(-c2ccccc2CCOC)c2c3cc(ccc31)-c1cc(O)cc(c1)C[C@H](NC(=O)[C@H](C(C)C)N(C)C(=O)C1CCN(C(=O)/C=C/CN(C)C)CC1)C(=O)N1CCC[C@H](N1)C(=O)OCC(C)(C)C2 (single isomer, unassigned) | 1 to 10 µM |  |  |  | 
C=CC(=O)N1CC[C@H](C(=O)N(C)[C@H](C(=O)N[C@H]2Cc3cc(O)cc(c3)-c3ccc4c(c3)c(c(-c3ccc(CN(C)C)cc3)n4CC)CC(C)(C)COC(=O)[C@@H]3CCCN(N3)C2=O)C(C)C)C1 (single isomer, unassigned) | 1 to 10 µM |  |  |  | 
C=CC(=O)C1CC[C@H](C(=O)N(C)[C@H](C(=O)N[C@H]2Cc3cc(O)cc(c3)-c3ccc4c(c3)c(c(-c3cccnc3)n4C3CC3)CC(C)(C)COC(=O)[C@@H]3CCCN(N3)C2=O)C(C)C)C1 (stereo partly shown) |  | < 5 µM |  | 0.1 to 1 µM | 1 to 10 µM
CCn1c(-c2cccnc2[C@H](C)OC)c2c3cc(ccc31)-c1csc(n1)C[C@H](NC(=O)[C@H](C(C)C)N(C)C(=O)N1CC(N(C)C(=O)C#CC(C)(C)N3CCC3)C1)C(=O)N1CCC[C@H](N1)C(=O)OCC(C)(C)C2 | 0.1 to 1 µM | < 5 µM | 1 to 10 µM |  | 0.01 to 0.1 µM
CCn1c(-c2cccnc2[C@H](C)OC)c2c3cc(ccc31)-c1cccc(c1)C[C@H](NC(=O)[C@H](C(C)C)N(C)C(=O)[C@H]1CCN(C(=O)C#CC3CCO3)C1)C(=O)N1CCC[C@H](N1)C(=O)OCC(C)(C)C2 (mixture of isomers) [Example A509] | > 10 µM |  | > 10 µM | 0.1 to 1 µM | 
C=CC(=O)N(C)CCN(C)C(=O)N(C)[C@H](C(=O)N[C@H]1Cc2nc(cs2)-c2ccc3c(c2)c(c(-c2cccnc2[C@H](C)OC)n3CC)CC(C)(C)COC(=O)[C@@H]2CCCN(N2)C1=O)C(C)C | 0.1 to 1 µM | < 5 µM | 1 to 10 µM | 0.01 to 0.1 µM | 
C=CS(=O)(=O)N1CC[C@H](C(=O)N(C)[C@H](C(=O)N[C@H]2Cc3cc(O)cc(c3)-c3ccc4c(c3)c(c(-c3cccnc3COC)n4CC)CC(C)(C)COC(=O)[C@@H]3CCCN(N3)C2=O)C(C)C)C1 (single isomer, unassigned) | 1 to 10 µM |  |  |  | 
